A word on the DC50: it is the midpoint of the concentration-degradation curve.

Protein sequences, listed by entry. Tags and fused reporters are not part of them.
UniProt P29597, whole entry: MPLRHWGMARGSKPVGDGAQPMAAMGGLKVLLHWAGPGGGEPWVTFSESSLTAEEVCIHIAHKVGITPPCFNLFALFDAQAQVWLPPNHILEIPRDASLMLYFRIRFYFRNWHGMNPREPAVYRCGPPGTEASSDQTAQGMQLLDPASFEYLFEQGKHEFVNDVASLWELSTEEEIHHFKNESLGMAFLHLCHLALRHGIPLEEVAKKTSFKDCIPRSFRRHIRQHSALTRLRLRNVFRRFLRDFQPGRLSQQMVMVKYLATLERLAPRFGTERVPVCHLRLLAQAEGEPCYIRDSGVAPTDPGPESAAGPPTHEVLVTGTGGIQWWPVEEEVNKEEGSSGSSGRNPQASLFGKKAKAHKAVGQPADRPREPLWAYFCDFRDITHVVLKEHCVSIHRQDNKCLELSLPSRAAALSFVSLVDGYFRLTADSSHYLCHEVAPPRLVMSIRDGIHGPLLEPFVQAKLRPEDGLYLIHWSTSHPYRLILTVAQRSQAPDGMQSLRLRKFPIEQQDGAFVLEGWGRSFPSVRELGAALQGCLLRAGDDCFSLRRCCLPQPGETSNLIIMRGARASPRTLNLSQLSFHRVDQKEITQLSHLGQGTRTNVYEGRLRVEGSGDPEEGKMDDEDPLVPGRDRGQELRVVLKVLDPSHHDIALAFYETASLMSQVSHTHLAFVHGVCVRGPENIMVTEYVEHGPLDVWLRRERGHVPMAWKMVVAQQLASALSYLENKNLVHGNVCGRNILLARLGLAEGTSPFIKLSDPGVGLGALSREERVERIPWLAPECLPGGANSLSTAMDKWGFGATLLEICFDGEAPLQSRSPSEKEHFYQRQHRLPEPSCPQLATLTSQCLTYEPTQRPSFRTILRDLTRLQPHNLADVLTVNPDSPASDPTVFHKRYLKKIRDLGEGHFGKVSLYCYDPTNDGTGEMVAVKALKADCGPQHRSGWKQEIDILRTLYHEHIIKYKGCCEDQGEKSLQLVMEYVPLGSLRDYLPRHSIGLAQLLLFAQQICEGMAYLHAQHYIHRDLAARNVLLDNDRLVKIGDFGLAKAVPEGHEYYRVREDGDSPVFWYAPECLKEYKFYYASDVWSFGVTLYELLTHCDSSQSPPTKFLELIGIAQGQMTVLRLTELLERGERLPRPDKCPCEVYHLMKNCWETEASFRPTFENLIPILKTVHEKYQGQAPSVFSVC

The assay addresses TYK2 (Homo sapiens, UniProt P29597). Put plainly: TYK2 MSD degradation in OCI-LY10 cells. As to conditions: for TYK2 MSD OCI-LY10 Dmax %: 4 to 24 hours incubation. How it is done: Example 7. TYK2 MSD Degradation
Degradation of TYK2 in cells was quantitatively measured using Meso Scale Discovery (MSD) technology. OCI-LY10 cells were seeded in 96-well plates with a density of 0.4 million cells per well in 100 μl fresh media. Compounds were then added to the assay plates with a final top concentration of 1 to 10 μM in a 1:3 dilution series with total of 9 doses. The assay plates were then incubated for 4 to 24 hours at 37° C. under […]. The assay plates were then centrifuged for 5 minutes, and the cell pellets were treated with 100 μl/well RIPA lysis buffer (Boston Bioproducts, BP-115D) with protease and phosphatase inhibitors (Roche, 05892791001 and 04906837001). To prepare MSD assay plates (MSD, L15XA), the plates were coated with the capture antibody (Santa Cruz Biotechnology, SC-5271) in PBS, at 40 μl/well. The plates were then incubated overnight at 4° C., washed 3 times with 150 μl/well TBST buffer (Cell Signaling Technology, 9997S) and blocked with 150 μl/well blocking buffer (MSD, R93BA-4). Cell lysates were then added to MSD assay plates and the plates were incubated at room temperature for 1 hour. The plates were then washed 3 times with 150 μl/well TBST buffer and 25 μl/well primary detection antibody (Cell Signaling Technology, #9312). The assay plates were then incubated at room temperature for 1 hour, washed 3 times with 150 μl/well TBST buffer, and 25 μl/well secondary detection antibody, SULFO-TAG anti-rabbit antibody (MSD, R32AB-1) were added. The assay plates were then incubated at room temperature for 1 hour, washed 3 times with 150 μl/well TB ST buffer, and 150 μl/well MSD reading buffer (MSD, R92TC-2) were added. The plates were then analyzed by an MSD reader. The data was analyzed by GraphPad Prism and the dose dependent TYK2 degradation was fit using the four-parameter inhibitor vs. response nonlinear regression.
The letter codes for TYK2 DC50 include: A (<1 nM); B (i to <10 nM); C (10 to 100 nM); D (>100 nM); and E (not tested). The letter codes for TYK2 Dmax % include: A (>90%); B (90 to >75%); C (75 to 50%); D (<50%); and E (not tested).

[1] abbreviates: TYK2 degradation in OCI-LY10 cells.
Setting [2] is: read-out: TYK2 MSD OCI-LY10 Rel-DC50, TYK2 degradation in OCI-LY10 cells, 4 to 24 hours incubation.
Where [3] appears, read: read-out: TYK2 MSD OCI-LY10 Rel-DC50, OCI-LY10 cells, 4 to 24 hours incubation.

Read-outs that look alike come from different tables or passages of the source. Some results are limits rather than exact numbers.

For `CNc1cc(N2CCc3c(-c4ccc(OCCC5CCN(C(=O)c6ccc(Cl)c(N7CCC(=O)NC7=O)c6)CC5)cn4)cccc32)nn2c(C(=O)N[C@@H]3C[C@@H]3F)cnc12` [I-617], the “TYK2 MSD OCI-LY10 Dmax %” value under setting [1] was “C (C (75 to 50%))”. Moreover, the DC50 under setting [2] is less than 10 nM.

As for `CNc1cc(N2CCc3c(CC4CCN(C5CCN(C6CCN(C(=O)c7ccc(Cl)c(N8CCC(=O)NC8=O)c7)CC6)CC5(F)F)CC4)cccc32)nn2c(C(=O)N[C@@H]3C[C@@H]3F)cnc12` (stereo partly shown), where the note is “OCI-LY10 cells”, the “TYK2 MSD OCI-LY10 Dmax %” value is recorded as “B (B (90 to >75%))”. In addition, under setting [3], the DC50 is less than 10 nM.

With `CO[C@@]1(c2cc(C)cc(-c3cn(CC4CCN(C(=O)CCCCc5ccc6c(c5)n(C)c(=O)n6C5CCC(=O)NC5=O)CC4)c4cnc(NC(C)=O)cc34)n2)CCOC1` (stereo partly shown), under setting [1], the “TYK2 MSD OCI-LY10 Dmax %” value was “D (D (<50%))”. Besides, under setting [2], the DC50 is greater than 100 nM.

Consider `CNc1cc(N2CCc3c(CN4CCC(N5CCC6(CCN(C(=O)c7ccc(OC)c(N8CCC(=O)NC8=O)c7)CC6)CC5)C(F)(F)C4)cccc32)nn2c(C(=O)N[C@@H]3C[C@@H]3F)cnc12` (stereo partly shown), for which the “TYK2 MSD OCI-LY10 Dmax %” value under setting [1] is recorded as “A (A (>90%))”. Also, the 50% degradation concentration (DC50) under setting [2] is less than 1 nM.

Regarding `CNc1cc(N2CCc3c(-c4ccc(N5CC6(CCN(C(=O)c7ccc(Cl)c(N8CCC(=O)NC8=O)c7)CC6)C5)cn4)cccc32)nn2c(C(=O)N[C@@H]3C[C@@H]3F)cnc12`, the “TYK2 MSD OCI-LY10 Dmax %” value (OCI-LY10 cells) is recorded as “D (D (<50%))”. For the same compound, the DC50 under setting [3] is less than 10 nM.

`COC1(c2cc(-c3ccc(CN4CCC5(CCN(C(=O)c6ccc(Cl)c(N7CCC(=O)NC7=O)c6)CC5)C(F)(F)C4)nc3)cc(-c3cn(C)c4cnc(NC(C)=O)cc34)n2)CCOC1` (stereo not shown): the “TYK2 MSD OCI-LY10 Dmax %” value under setting [1] is reported as “A (A (>90%))”. Moreover, the DC50 under setting [2] was less than 1 nM.

For `CNc1cc(N2CCc3c(CN4CCC(N5CCC6(CCN(C(=O)c7cc(N8CCC(=O)NC8=O)c(Cl)cn7)CC6)CC5)C(F)(F)C4)cc(F)cc32)nn2c(C(=O)N[C@@H]3CC[C@H]3OC)cnc12` (stereo partly shown), the “TYK2 MSD OCI-LY10 Dmax %” value under setting [1] was “A (A (>90%))”. For the same compound, the DC50 under setting [2] was less than 1 nM.

Turning to `CO[C@@]1(c2cc(-c3ccc(CN4CCC5(CCN(C(=O)c6ccc(Cl)c(N7CCC(=O)NC7=O)c6)CC5)C(F)(F)C4)cn3)cc(-c3cn(C)c4cnc(NC(C)=O)cc34)n2)CCOC1`, under setting [1], the “TYK2 MSD OCI-LY10 Dmax %” value is listed as “B (B (90 to >75%))”. For the same compound, the DC50 under setting [2] was less than 1 nM.

Regarding `CO[C@@]1(c2cc(CN3CCC(CCN4CCN(C(=O)c5ccc(Cl)c(N6CCC(=O)NC6=O)c5)CC4)CC3)cc(-c3cn(C)c4cnc(NC(C)=O)cc34)n2)CCOC1`, the “TYK2 MSD OCI-LY10 Dmax %” value under setting [1] is on record as “D (D (<50%))”. Under setting [2], the DC50 was greater than 100 nM.

For `CNc1cc(N2CCc3c(-c4ncc(CN5CC6(CCN(C(=O)c7cc(C)c(Cl)c(N8CCC(=O)NC8=O)c7)CC6(F)F)C5)cc4F)cccc32)nn2c(C(=O)N[C@@H]3CCC3(F)F)cnc12`, under setting [1], the “TYK2 MSD OCI-LY10 Dmax %” value was “A (A (>90%))”. Moreover, the DC50 under setting [2] was less than 1 nM.

Consider `CNc1cc(N2CCc3c(CN4CCC(N5CCC6(CCN(C(=O)c7cc(N8CCC(=O)NC8=O)c(Cl)cn7)CC6)CC5)C(F)(F)C4)cccc32)nn2c(C(=O)N[C@@H]3CC[C@H]3OC)cnc12` (stereo partly shown), for which the “TYK2 MSD OCI-LY10 Dmax %” value under setting [1] was “B (B (90 to >75%))”. Also, the half-maximal degradation concentration (DC50) under setting [2] is less than 1 nM.

Take `CNc1cc(N2CCc3c(-c4ccc(CN5CCC6(CCN(C(=O)c7ccc(C)c(N8CCC(=O)NC8=O)c7)CC6)C(F)(F)C5)cn4)cccc32)nn2c(C(=O)N[C@@H]3C[C@@H]3F)cnc12`: for the setting “OCI-LY10 cells”, the “TYK2 MSD OCI-LY10 Dmax %” value is “B (B (90 to >75%))”. The DC50 under setting [3] is less than 1 nM.

On to `CO[C@]1(c2cc(-c3ccc(CN4CC5(CCN(C(=O)c6ccc(Cl)c(N7CCC(=O)NC7=O)c6)CC5)C4)cn3)cc(-c3cn(C)c4cnc(NC(C)=O)cc34)n2)CCOC1`, for which the “TYK2 MSD OCI-LY10 Dmax %” value under setting [1] is “B (B (90 to >75%))”. Under setting [2], the DC50 was less than 1 nM.

For `CNc1cc(N2CCc3c(-c4ccc(CN5CCN(CCc6ccc(Cl)c(C7CCC(=O)NC7=O)c6)CC5)cn4)cccc32)nn2c(C(=O)N[C@@H]3C[C@@H]3F)cnc12` (stereo partly shown), the “TYK2 MSD OCI-LY10 Dmax %” value under setting [1] is listed as “D (D (<50%))”. Also, the DC50 under setting [2] was less than 10 nM.

These data come from patent US20260125400A1, “TYK2 DEGRADERS AND USES THEREOF” (Kymera Therapeutics, Inc., priority 2023, published 2026).
